The text below walks through data of article PMC3923779, “Iron Acquisition in Bacillus cereus: The Roles of IlsA and Bacillibactin in Exogenous Ferritin Iron Mobilization” (PLoS Pathogens, 2014).

The assay deals with T1, IlsA (Iron-regulated leucine rich surface protein type A), recombinant, without signal peptide (Bacillus cereus strain ATCC14579, UniProt Q81G77 29-760).
T1 construct: IlsA of Bacillus cereus strain ATCC14579, NCBI gene number Bc1331; Holo form (hemin added until saturation of 80%) in the ITC; also called Holo-IlsA; full-length IlsA; source: E. coli C600 ΔhemA, purified (Bulk GST Purification Module, eluted with PreScission Protease); produced in apo-form, hemin added to reconstitute the holo-protein
T1 sequence (looked up): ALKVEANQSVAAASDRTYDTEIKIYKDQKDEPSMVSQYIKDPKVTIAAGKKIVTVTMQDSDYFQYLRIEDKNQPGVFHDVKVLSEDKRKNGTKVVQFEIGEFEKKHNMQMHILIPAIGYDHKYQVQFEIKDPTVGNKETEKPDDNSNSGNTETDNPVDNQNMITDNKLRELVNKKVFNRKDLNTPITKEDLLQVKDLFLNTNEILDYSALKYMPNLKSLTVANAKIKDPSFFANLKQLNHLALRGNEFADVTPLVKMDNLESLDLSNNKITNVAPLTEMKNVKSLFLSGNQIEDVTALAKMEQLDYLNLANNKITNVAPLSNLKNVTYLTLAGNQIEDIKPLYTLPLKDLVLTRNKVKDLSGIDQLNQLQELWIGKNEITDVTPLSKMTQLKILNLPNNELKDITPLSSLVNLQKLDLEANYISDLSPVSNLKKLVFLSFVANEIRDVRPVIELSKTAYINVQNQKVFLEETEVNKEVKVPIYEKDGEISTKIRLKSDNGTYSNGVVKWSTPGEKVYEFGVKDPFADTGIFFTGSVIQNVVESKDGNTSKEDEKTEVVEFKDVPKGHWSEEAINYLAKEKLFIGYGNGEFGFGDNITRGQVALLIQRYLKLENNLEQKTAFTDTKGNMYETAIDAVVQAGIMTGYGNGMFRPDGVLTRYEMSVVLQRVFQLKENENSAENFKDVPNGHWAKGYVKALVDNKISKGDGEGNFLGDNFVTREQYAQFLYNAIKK
In words: ITC; 16 injections of 3 µl of 229 µM holo-IlsA into the cell with 1 µM ferritin; 25°C; 50 mM Tris-HCl pH 7, 150 mM NaCl, 1 mM EDTA, 1 mM DTT; model of one set of independent binding sites; apparent values. The conditions noted are these: both partners purified. In general terms: In ITC the heat of successive injections is recorded.

B1: recombinant human L-chain ferritin (natural protein, UniProt P02792 1-175, looked up)
chain: MSSQIRQNYSTDVEAAVNSLVNLYLQASYTYLSLGFYFDRDDVALEGVSHFFRELAEEKREGYERLLKMQNQRGGRALFQDIKKPAEDEWGKTPDAMKAAMALEKKLNQALLDLHALGSARTDPHLCDFLETHFLDEEVKLIKKMGDHLTNLHRLGGPEAGLGEYLFERLTLKHD
notes: human ferritin L-chain, recombinant homopolymer of 24 L-subunits; also called HuLF; recombinant human homopolymer L-chain; copies: 24
Consider B1, for which the Ka was 836000 M⁻¹.
